This is an account of results in publication PMC9502466, “Identification of SARS-CoV-2 Main Protease Inhibitors from a Library of Minor Cannabinoids by Biochemical Inhibition Assay and Surface Plasmon Resonance Characterized Binding Affinity” (Molecules, 2022).

The target of this test is SARS-CoV-2 M^pro (Severe acute respiratory syndrome coronavirus 2, UniProt P0DTD1). Type of test: biochemical. To be noted: 10 µM.

Bounds are passed on as bounds.

Take `O=C[C@H](C[C@@H]1CCNC1=O)NC(=O)[C@H](CC1CCCCC1)NC(=O)c1cc2ccccc2[nH]1` [M^pro 11a, reference compound]: the “inhibition rate of SARS-CoV-2 M^pro activity” value is listed as above 98%.
